# Literature values, collected in patent US20100292209A1, “METHODS FOR IDENTIFYING COMPOUNDS THAT MODULATE NEUROTROPHIC FACTOR SIGNALING” (Massachusetts Institute of Technology, priority 2007, published 2010).
# Biological target: ErbB1 (Homo sapiens, UniProt P00533)
# Conditions: cited from earlier work
compound,measurement,value
"COc1cc2ncnc(Nc3cccc(Cl)c3)c2cc1OC [AG1478, 4-(3-Chloroanilino-6,7-dimethoxy)-quinazoline]",selectivity ErbB1 over ErbB2,selectively inhibit ErbB1 over ErbB2
